Molecular target: T1, 1-deoxy-D-xylulose-5-phosphate synthase (Escherichia coli (strain K12), UniProt P77488)
T1 sequence (P77488 whole entry): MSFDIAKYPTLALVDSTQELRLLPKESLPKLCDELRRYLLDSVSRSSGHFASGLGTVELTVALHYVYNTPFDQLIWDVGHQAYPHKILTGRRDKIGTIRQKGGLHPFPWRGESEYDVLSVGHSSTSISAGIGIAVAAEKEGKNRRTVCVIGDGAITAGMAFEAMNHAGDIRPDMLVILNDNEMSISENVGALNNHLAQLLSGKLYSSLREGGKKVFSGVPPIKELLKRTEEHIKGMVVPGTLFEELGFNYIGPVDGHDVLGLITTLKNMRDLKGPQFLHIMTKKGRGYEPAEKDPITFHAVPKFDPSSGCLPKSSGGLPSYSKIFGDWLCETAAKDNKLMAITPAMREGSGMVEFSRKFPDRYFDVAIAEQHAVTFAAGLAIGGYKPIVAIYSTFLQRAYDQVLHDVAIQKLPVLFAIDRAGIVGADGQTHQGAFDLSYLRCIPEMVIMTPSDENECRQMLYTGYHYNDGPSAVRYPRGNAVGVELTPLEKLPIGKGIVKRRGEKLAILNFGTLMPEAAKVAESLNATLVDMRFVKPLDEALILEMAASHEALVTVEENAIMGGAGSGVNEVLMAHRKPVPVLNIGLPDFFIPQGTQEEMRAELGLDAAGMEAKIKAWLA
Assay: DXP Synthase Inhibition Assay
Conditions: pH 8; 37 °C
Method: Reaction mixtures containing HEPES (100mM, pH 8.0, 2mM MgCl2, 5mM NaCl), ThDP (1mM), BSA (1mg/mL), DMSO (10%, v/v), ᴅ-GAP (30µM), pyruvate (80µM), and various concentrations of nitroso inhibitor were preincubated at 37°C for 5 min. Enzyme reactions were initiated by addition of DXP synthase (0.1µM). Aliquots (150µL) of the enzymatic mixture were removed between 0.5 and 3 min and quenched in ice-cold methanol (150µL).

With Cc1ccccc1N=O [1‐methyl‐2‐nitrosobenzene (Substrate 3)] the IC50 was 291 µM.

— BindingDB's records for doi:10.1002/cbic.201300187 (The Johns Hopkins University, 2013)
